The numbers were not newly measured in patent US20220127568A1, “COMPOSITIONS AND METHODS FOR GENERATING HAIR CELLS BY INHIBITING EPIGENETIC TARGETS” (Frequency Therapeutics, Inc., priority 2019, published 2022), which cites them from elsewhere.

By UniProt entry, the sequences of proteins in these tests, tags left out.
UniProt Q15910, whole entry, species assumed: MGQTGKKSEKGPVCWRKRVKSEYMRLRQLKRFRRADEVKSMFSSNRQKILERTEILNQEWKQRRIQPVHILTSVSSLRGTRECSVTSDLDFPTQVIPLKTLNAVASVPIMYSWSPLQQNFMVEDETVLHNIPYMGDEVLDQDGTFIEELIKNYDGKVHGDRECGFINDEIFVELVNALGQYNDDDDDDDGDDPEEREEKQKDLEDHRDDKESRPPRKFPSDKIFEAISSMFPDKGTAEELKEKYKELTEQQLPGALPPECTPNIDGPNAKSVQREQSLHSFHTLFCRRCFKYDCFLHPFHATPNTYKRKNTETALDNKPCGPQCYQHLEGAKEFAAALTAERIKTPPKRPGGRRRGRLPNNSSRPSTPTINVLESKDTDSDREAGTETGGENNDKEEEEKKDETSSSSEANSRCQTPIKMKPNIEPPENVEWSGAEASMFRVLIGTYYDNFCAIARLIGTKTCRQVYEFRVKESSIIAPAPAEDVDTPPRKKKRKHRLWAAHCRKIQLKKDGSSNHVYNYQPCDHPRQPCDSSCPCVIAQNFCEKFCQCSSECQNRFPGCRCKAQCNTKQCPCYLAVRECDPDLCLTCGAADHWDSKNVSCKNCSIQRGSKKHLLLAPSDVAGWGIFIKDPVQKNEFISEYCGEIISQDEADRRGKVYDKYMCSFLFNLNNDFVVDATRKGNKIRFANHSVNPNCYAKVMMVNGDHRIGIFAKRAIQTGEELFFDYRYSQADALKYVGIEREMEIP

Broadly, the IC50 is the concentration at which inhibition is half-maximal.

In data set [1] the target is T1, EZH2 (Homo sapiens, UniProt Q15910). The following applies: Table 7, EZH2 (incl. EED, SAH-hydrolase) inhibitors; read-out: pKi or IC50 (converted); cited from earlier work.
For data set [2], the target named is T1, EZH2. As to conditions: literature cell potency, EZH2 inhibitors; cited from earlier work.

Some results are limits rather than exact numbers.

As for `CCN(c1cc(C#CCN2CCOCC2)cc(C(=O)NCc2c(C)cc(C)[nH]c2=O)c1C)[C@H]1CC[C@H](N(C)CCOC)CC1` [EPZ-011989], on EZH2 [1], the IC50 is under 3 nM. Turning to `Cc1cc(C)c(CNC(=O)c2cc(Cl)c3c(c2C)O[C@@](C)([C@H]2CC[C@H](N(C)C)CC2)O3)c(=O)[nH]1` [valemetostat], the “Lit Cell Poten” value on EZH2 [2] was 25 to 250 nM. Consider `CCCc1cc(C)[nH]c(=O)c1CNC(=O)c1cc(-c2ccnc(N3CCN(C)CC3)c2)cc2c1cnn2C(C)C` [GSK343], for which the IC50 at EZH2 [1] is 1.2 nM.
